Rows were chosen to be rich in hits. Some 0.78% of all compounds tested hit in one or more screens of this group.
PINK1 modulator: changes PINK1 expression; PINK1 immunofluorescence, high-content cytometry, 24 h; 0.2% of 410,000 active; Potency, µM (top dose mostly 76.6 µM), usual class: activators; active means well fitted activation curve with a large enough effect; inconclusive means small, poorly fitted or top-dose-only effect; cell line not stated here; further: nearly all actives have a fitted effect of over 65% in size
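PINK1 protein, normally rapidly degraded, was detected by immunofluorescence after 24 hour compound treatment of a stable cell line. Titration data (5 concentrations) came from laser-scanning cytometry, with CCCP-treated wells as controls.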
miR-21 reporter: raises the signal of a miR-21 reporter; HeLa miR-21 FLuc reporter, luciferase, 48 h; Potency, µM (series often up to 38.3 µM); 340,000 tested, under 10 active; active = well fitted rising curve with a large enough effect; inconclusive = small, poorly fitted or top-dose-only effect; inactive = no such curve, though single readings can be large or run the other way;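 also: miR-21 action dims this reporter so a rising signal means less miR-21 action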
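Compounds were titrated across several concentrations (up to approximately 40 uM) and incubated 48 hours with HeLa miR-21-FLuc reporter cells (miR-21 target sequence downstream of FLuc, endogenous miR-21). Readout was firefly luciferase luminescence after lytic detection reagent.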
RXFP1 agonist: activates the human relaxin receptor RXFP1. 0.3% of 370,000 active. Potency, µM (titrated, usually from 57.5 µM), most hits filed as activators. HEK293T-RXFP1 cAMP TR-FRET, 30 min; response scale: percent of porcine relaxin response, buffer zero. Q9HBX9; further: nearly all actives have a fitted effect of over 60% in size
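HEK293 cells stably expressing RXFP1, treated 30 min at 37C with compounds plus PDE4 inhibitor Ro 20174; cAMP measured by HTRF TR-FRET. Normalized to buffer and 29 nM porcine relaxin; EC50 by Hill fit.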
TCR act: T cell receptor activation. primary human leukocytes, anti-CD3, IL-2 HTRF, 48 h. Potency, µM (doses to about 9.22 µM), usual class: activators. 330,000 tested, under 10 active. AID 504894
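HTRF read-out of IL-2 secretion: europium cryptate donor excited at 320nm, d2 acceptor emission at 665nm. Cells were primary human leukocytes incubated 48 hr with compounds and a-CD3 beads, supplying TCR signal only.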
RXFP1 antagonist: blocks the human relaxin receptor RXFP1 | HEK293-RXFP1, relaxin-stimulated cAMP HTRF, 30 min; active compounds read low | AID 1259400 | Q9HBX9 | activity change, negative = inhibition, % at 57.5 µM | 0.59% of 350,000 active;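 active means activity change of -60% or lower, but not beyond a set lower limit; inconclusive means change between -60% and -40%, or beyond the set limit; inactive means change above -40%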
IL2 activator: activates IL-2 in a cell-based reporter assay. IL-2 activation reporter assay, cell-based qHTS; stimulated with anti-CD3/CD4/CD28 beads; in transgenic mouse T cells. activation, % (series mostly up to about 46 µM). 0.065% of 360,000 active; in the data active means activation above about 50%; inconclusive means mostly about 30% to 49%
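Unstimulated transgenic mouse T cells; 60-min compound exposure; bead-based TCR/CD4/CD28 stimulation; 18 h culture, 37 degrees C; dual fluorescence (EGFP, DsRed) plate cytometry.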
Numbers stand for hits; 0 = inactive; ? = inconclusive; - = no result. Unless noted, the call rests on the fitted dose curve; in most records, active means well fitted curve in the direction sought with a large enough effect; inconclusive means small, poorly fitted or top-dose-only effect, or another doubt; inactive means no such curve, though single readings can be large; an effect the other way counts as inactive or inconclusive.

SMILES	PINK1 modulator	miR-21 reporter	RXFP1 agonist	TCR act	RXFP1 antagonist	IL2 activator
O=C(Nc1ccc(Nc2ccccc2)cc1)c1ccco1	0	0	0	0	-81	0
CC(C)(C)C(=O)N1CCN(c2ccc(NC(=O)c3ccco3)cc2)CC1	0	0	0	0	-83	0
CC(C)CC(=O)N1CCN(c2ccc(NC(=O)c3ccco3)cc2)CC1	0	0	0	0	0	0
O=C(Nc1ccc(NC(=O)c2ccco2)cc1)c1ccco1	0	0	0	0	0	0
Cc1cnc(-n2ncc(C(=O)NCCN3CCOCC3)c2C(C)C)nc1-c1ccc(F)cc1	0	-	-	-	-	-
Cn1c(=O)c2c(ncn2CC(=O)NC2CCCCC2)n(C)c1=O	0	0	16µM	0	0	0
COc1cc(/C=N/NC(=O)Cn2cnc3c2c(=O)n(C)c(=O)n3C)cc(OC)c1OC	0	0	0	0	0	0
CCOc1ccccc1OCC(=O)NNC(=O)Cn1cnc2c1c(=O)n(C)c(=O)n2C	0	0	22µM	0	0	0
COC(=O)c1ccccc1NC(=O)Cn1cnc2c1c(=O)n(C)c(=O)n2C	0	-	-	0	0	0
COc1cccc(/C=N/NC(=O)Cn2cnc3c2c(=O)n(C)c(=O)n3C)c1OC	0	0	18µM	0	0	0
C=CCOC(=O)C1=C(C)N(C)C(=O)NC1c1cc2c(cc1Br)OCO2 (stereo not given)	0	0	0	0	-74	0
COCCN1C=C(C(=O)OC)C(c2cc3c(cc2Br)OCO3)C(C(=O)OC)=C1	4µM	0	0	-	0	0
COCCN1C=C(C(=O)OC)C(c2ccc3c(c2)OCO3)C(C(=O)OC)=C1	-	0	0	0	0	0
Cc1nc2c(-c3ccc(Cl)cc3)c(C)[nH]n2c(=O)c1Cc1ccccc1	35µM	?	0	0	?	0
CCn1cc(C(=O)O)c(=O)c2cc(F)c(N/N=C/c3ccccc3[N+](=O)[O-])cc21	40µM	0	0	0	0	0
O=C(c1ccco1)N1CCNCC1	-	-	-	-	0	-
CC(C)c1ccc(NC(=S)Nc2ccc(OC(F)(F)F)cc2)cc1	0	0	0	0	0	0
FC(F)(F)Oc1ccc(NC(=S)Nc2ccc(OC(F)(F)F)cc2)cc1	16µM	0	0	0	0	0
Cc1cc2c(c(-c3ccc(Cl)cc3)c1)OC(CNC(=O)CCC(=O)N(C)C)C2 (stereo not given)	0	-	-	-	-	-
COc1cc(-c2cc(OC)c3c(C)oc(C)c3c(=O)c2)ccc1OC(=O)c1ccccc1F	0	0	0	-	-68	-
CCOc1cc(-c2ccc(OC(=O)c3ccccc3)c(OC)c2)cc(=O)c2c(C)oc(C)c12	0	0	0	-	-98	-
COc1ccc(-c2cc(OC(=O)c3ccccc3)c3c(C)oc(C)c3c(=O)c2)cc1OC	0	0	0	-	0	-
CCOc1cc(-c2ccc(OC(=O)c3ccc(Cl)cc3)c(OC)c2)cc(=O)c2c(C)oc(C)c12	0	0	0	-	-63	-
COC(=O)c1cn([C@@H]2C[C@@H](C(=O)N3CCCCCC3)N(Cc3cc4ccccc4s3)C2)nn1	0	-	-	-	-	-
CCC1CN(C(=O)N2CCC(C(=O)NCc3ccc(C)o3)CC2)c2cc(C)ccc2O1 (stereo not given)	0	0	0	0	0	0
SMILES	PINK1 modulator	miR-21 reporter	RXFP1 agonist	TCR act	RXFP1 antagonist	IL2 activator
CCc1ccc(CNC(=O)C2CCN(C(=O)N3CC(CC)Oc4ccc(C)cc43)CC2)cc1 (stereo not given)	0	0	0	-	-68	-
CCC1CN(C(=O)N2CCC(C(=O)NCCc3ccccc3Cl)CC2)c2cc(C)ccc2O1 (stereo not given)	0	0	0	-	-87	-
CCCN1CCN(CCNC(=O)Nc2ccccc2Cl)CC1	0	0	0	0	0	0
Cc1ccc(C)c(NC(=O)NCCN2CCCCC2)c1	0	0	0	0	-77	0
CCCN1CCN(CCNC(=O)Nc2cc(C)ccc2C)CC1	0	0	0	0	0	0
O=C(NCCN1CCCCC1)Nc1cccc(Cl)c1Cl	0	0	0	0	-77	0
C/C=C(\C)C(=O)NCCN1Cc2ccccc2OC(c2ccccc2OC)C1 (stereo not given)	0	-	-	-	-	-
C[C@@H](c1ncncc1F)C(O)(Cn1cncn1)c1ccc(F)cc1F (stereo not given in full)	-	-	-	-	0	-
CCOc1c2c(c(-c3ccc4c(c3)OCO4)c3cc(OC)c(OC)cc13)C(=O)OC2	14µM	-	-	-	-	-
CCOc1ccc(NC(=O)COC(=O)c2ccc(S(=O)(=O)N3CCOCC3)cc2)cc1	0	-	-	-	0	0
CCOc1ccc(-n2c([S-])c(C(=O)Nc3ccc(S(=O)(=O)N4CCOCC4)cc3)[n+]3cc(C(N)=O)ccc23)cc1	0	0	32µM	0	0	0
CCc1ccc(-c2nc(NC(=O)c3ccc(OCC(=O)Nc4ccc(F)cc4)c(OC)c3)sc2C)cc1	0	0	32µM	0	0	0
COc1ccc(-c2nc(NC(=O)c3ccc(OCC(=O)N4CCOCC4)c(OC)c3)sc2C)cc1	0	0	0	0	0	0
CCc1noc(C)c1C(=O)Nc1nc(-c2ccc(F)cc2)c(C)s1	0	0	0	0	0	0
COc1cc(C(=O)Nc2nc(-c3ccc(Cl)cc3)c(C)s2)ccc1OCC(=O)Nc1ccc(F)cc1	0	0	20µM	0	0	0
COc1ccc2ccccc2c1CN1CCC2(CCC(CNC(=O)c3ccccc3)O2)CC1 (stereo not given)	0	-	-	-	-	-
N=c1n(CC(=O)c2ccc([N+](=O)[O-])cc2)c2ccccc2n1Cc1ccc(Cl)cc1	0	0	0	0	-	65
COc1ccc(N2CCN(C(=O)c3cc(NC(C)=O)c4c(c3)ncn4CCc3ccccn3)CC2)cc1	0	-	-	-	-	-
CN(C(=O)COC(=O)c1ccc([N+](=O)[O-])cc1N)c1ccccc1	0	0	0	0	0	77
Cc1ccc(C(=O)OCC(=O)N(C)c2ccccc2)c(C)c1	0	0	0	0	0	0
COC(=O)c1ccccc1-c1cc(C)cc2c1OC(CNC(=O)c1occc1C)C2 (stereo not given)	0	-	-	-	-	-
O=C(Nc1cccc2c1CCCC2)c1ccc(Cl)c([N+](=O)[O-])c1	0	0	0	0	-70	0
Cc1cc2c(c(-c3nc4ccccc4s3)c1)OC(CNC(=O)CCc1cccnc1)C2 (stereo not given)	0	-	-	-	-	-
O=C(CSc1nc(=O)n2cc(Cl)ccc2n1)Nc1ccc2c(c1)OCCO2	0	-	0	0	0	0
O=C(CSc1nc(=O)n2cc(Cl)ccc2n1)Nc1ccc2c(c1)OCO2	0	-	0	0	0	312
CC(=O)c1ccc(O)c(C(N)=O)c1	-	-	-	-	0	-

Assay outcomes from PubChem.
